This is an account of results in article PMC11164251 (International journal of biological macromolecules, 2023).

Assay in all cases: ITC of HsLeo1 peptides with the HsTFIIS LW domain
Assay [1] has as its target HsTFIIS LW domain (Homo sapiens, UniProt P23193). The class given is binding. Conditions: pH 7.4, 25 °C. The essentials: (§1)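 Recombinant N-His-tagged LW domain (wild type or point mutant), expressed in E. coli BL21 (DE3) (0.5 mM IPTG, 16 °C, 20 h) and purified by Ni-NTA, gel filtration and ion exchange. ITC: 50 uM protein in cell, 1mM synthetic Leo1 peptides in syringe, 16 × 2 μl injections at 120 s intervals. Buffer: 25 mM Tris, 200 mM NaCl, 1 mM EDTA, 1 % glycerol, pH 7.4, 25 °C. Peptide-into-buffer heat of dilution subtracted.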

In assay [2] the target is HsTFIIS LW domain. The class given is binding, Homo sapiens. Conditions: HsTFIIS LW domain mutant printed as W339A. In short, it runs like this: as §1
For assay [3], the target named is HsTFIIS LW domain (Homo sapiens, UniProt P23193, L41A). It is filed as binding. Conditions: HsTFIIS1–96 LW mutant L41A, pH 7.4, 200 mM NaCl, 25 °C. In short, it runs like this:
as §1

Assay [4] addresses HsTFIIS LW domain (Homo sapiens, UniProt P23193, I70A). It is filed as binding. Conditions: HsTFIIS1–96 LW mutant I70A, pH 7.4, 200 mM NaCl, 25 °C. In short, it runs like this: as §1
The target of assay [5] is HsTFIIS LW domain (Homo sapiens, UniProt P23193, K67A). It is filed as binding. Conditions: HsTFIIS1–96 LW mutant K67A, pH 7.4, 25 °C. The essentials:
as §1

Assay [6] concerns the target HsTFIIS LW domain (Homo sapiens, UniProt P23193, W73A). The class given is binding. Conditions: HsTFIIS1–96 LW mutant W73A, pH 7.4, 200 mM NaCl, 25 °C. In short, it runs like this:
as §1

With `CSCC[C@H](NC(=O)[C@H](CC(=O)O)NC(=O)[C@H](C)N)C(=O)N[C@@H](CCC(=O)O)C(=O)N[C@@H](CC(=O)O)C(=O)N[C@@H](CC(C)C)C(=O)N[C@@H](Cc1ccccc1)C(=O)NCC(=O)N[C@@H](CO)C(=O)N[C@@H](CC(=O)O)C(=O)N[C@@H](C)C(=O)N[C@@H](CC(=O)O)C(=O)N[C@@H](CO)C(=O)N[C@@H](CCC(=O)O)C(=O)N[C@@H](C)C(=O)O` [HsLeo1_2–16], the “N (ITC binding stoichiometry)” value on HsTFIIS LW domain [1] (HsTFIIS1–78 LW), on HsTFIIS LW domain [1] (wild type HsTFIIS1–96 LW) and on HsTFIIS LW domain [5] was 1.00 in each case. Moreover, the “binding (ITC), result in words” value at HsTFIIS LW domain [2] is listed as “abolishes the interactions”. Further, the Kd result on HsTFIIS LW domain [3], at HsTFIIS LW domain [4] and on HsTFIIS LW domain [6] was “no binding” each time.
